# AlphaSeq binding of Ab-14 heavy chain variants to a spike HR2 peptide

Binding partner: SARS-CoV-2 spike HR2 peptide, sequence PDVDLGDISGINAS.

Each scFv is VH, the linker GGGGSGGGGSGGGGS, VL, as in the parent Ab-14, and differs from it in the CDRs of the heavy chain only.
VH: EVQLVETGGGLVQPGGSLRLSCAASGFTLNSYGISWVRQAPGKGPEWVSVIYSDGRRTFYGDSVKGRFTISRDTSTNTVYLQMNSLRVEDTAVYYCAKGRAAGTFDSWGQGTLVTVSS
VL: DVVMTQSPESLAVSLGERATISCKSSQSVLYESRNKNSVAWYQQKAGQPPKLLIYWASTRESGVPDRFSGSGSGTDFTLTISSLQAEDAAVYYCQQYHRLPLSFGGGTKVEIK

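The variants were designed computationally from a first round of random CDR variants and then made and measured. Group labels follow the data file (Ctrl: baseline library sampled from a position-specific scoring matrix, with some repeated check sequences; Rand: our label for a block that the file lists under HC and that is probably the random mutants of the ten best first-round binders; En: ensemble of fine-tuned language models; GP: Gaussian process model; GPLM: also part of the Gaussian process libraries; HC: hill climbing; Gen: genetic algorithm; Gibbs: Gibbs sampling; a sequence that several methods proposed may carry one label only). AlphaSeq pools MATa yeast showing the antibodies with MATalpha yeast showing the peptide. Binding brings cells together so that they mate, and sequencing counts the barcode pairs among the diploids. The ratio of observed to expected reads was calibrated, replicate by replicate, on BCL2-family standards whose Kd was known from biolayer interferometry. The assay was run in six technical replicates.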

Each variant is given by its three heavy chain CDRs, as the data file delimits them; those of the parent are GFTLNSYGIS, VIYSDGRRTFYGDSVK, GRAAGTFDS. Affinities are written as log10 Kd with Kd in nM; a lower number is a better binder. Averages over replicates are reported, and they cover detected replicates only. "not detected" marks a missing value. The strain was present, yet no cells mated with the target were sequenced in any replicate, which points to weak or no binding. In the paper, a design with two or fewer of six values counts as a poor binder. Of ten entries with the parent sequence, four were seen in most replicates (averages 0.34 to 2.37), three in one and three in none, so single entries are noisy. As a blank, each scFv also met three strains without target: over all heavy chain designs, 1% of these pairings were detected, typically at 2.08 and seldom below 0.84. Also given: how often the same scFv was detected with the empty control strains. A sequence measured in both rounds can read differently, since the two assays cover different ranges.

| CDR-H1 | CDR-H2 | CDR-H3 | group | mean log10 Kd (nM) | seen in | control signals |
|---|---|---|---|---|---|---|
| GFGLNNYGIS | VIYSDGRRTFYSDSVK | GRAAVAFDS | Ctrl | not detected | 0/6 | 1/18 |
| GYTLNSYGSS | VIYSDGRRTFYGDSVK | GLACGTFDS | Ctrl | not detected | 0/6 | 0/18 |
| GYDIQDYGIS | VIYADGVRKVYHDSVK | GQLAGFFIT | En_Gibbs | not detected | 0/6 | 0/18 |
| GFTLNIYGIS | VIYSDGRRTFYSDSVK | GPAAGFFDS | Rand | not detected | 0/6 | 0/18 |
| GFDLDEYGIS | VIYADGMRTAYADDVK | GQNAGTFDT | En_Gen | -0.55 | 6/6 | 0/18 |
| GFDLNEYGIS | VIYADGRRTAYSDSVK | GEVAGTFVN | En_HC | -0.35 | 6/6 | 1/18 |
| GFTLNSYGIS | VIYSDGRRTFYGDSVS | GRASGTFDS | Ctrl | not detected | 0/6 | 0/18 |
| GFQLNEYGIS | VIYSDGRRTFYGDSVK | GRLAGTFDT | GP_Gen | 0.48 | 6/6 | 0/18 |
| GFDLNEYGIS | VIYADGHRTKYQNNVK | GGQADFALL | En_Gibbs | not detected | 0/6 | 0/18 |
| GFTLNQYGIS | VIYSDGKRTFYSDSVK | GKAAGTFDS | GPLM_HC | 0.37 | 6/6 | 0/18 |
| PFDLNSYGIS | VIYSDGRRTFYKDSVK | GRTAGTFDS | GP_Gen | 0.90 | 4/6 | 0/18 |
| GFDLDEYGIS | VIYADGRRTAYADSVK | GNVAGTFDL | En_Gen | -0.88 | 6/6 | 0/18 |
| GFDLNEYGIS | VIYADGRRTFYADSVK | GNMAGTFNV | En_HC | -0.79 | 6/6 | 0/18 |
| GFTLNSYGIS | VIYSDGRRTAYGDSVK | GTAAGTFDS | Ctrl | 0.84 | 6/6 | 0/18 |
| GFSLNEYGIS | VIYSDGRRTFYGDSVK | GKQAGTFDS | GPLM_Gibbs | 1.00 | 6/6 | 0/18 |
| GFWLNEYGIS | VIYSDGRRTFYGDSVK | GRAAGTFDT | GP_Gibbs | 1.39 | 6/6 | 0/18 |
| GFTLNVYGIS | VIYSDGRRTFTTDSVK | GRFAGTFDS | Rand | 1.61 | 1/6 | 0/18 |
| GFNLNEYGIS | VIYADGVRTFYADSVK | GGAAGTFDV | En_HC | -0.11 | 6/6 | 0/18 |
| GFDLNEYGIS | VIYADGQRTAYADSVK | GNVAGTFDM | En_Gen | -0.35 | 6/6 | 2/18 |
| GFDLLEYGIS | VIYADGQRVAYFNNVK | GKNGAFFSN | En_Gibbs | not detected | 0/6 | 0/18 |
| GFTLNSYGSS | VIYSDGRRTFYGDSVK | GRAEGTFDS | Ctrl | not detected | 0/6 | 0/18 |
| GFELNSYGIS | VIYSDGRRTFYKDSVK | GREAGTFDS | GP_Gen | -0.24 | 6/6 | 0/18 |
| GFDLNSYGIS | VIYSDGRRTFYGDSVK | GRDAGTFES | GP_HC | 3.55 | 3/6 | 1/18 |
| MFSLNSYGIS | VIYSDGRRTAYGDSVK | GRNAGTFDS | GP_Gibbs | 2.44 | 3/6 | 0/18 |
| GFDLNEYGIS | VIYADGMRTAYIDSVK | GNAAGTFDS | En_HC | -0.58 | 6/6 | 0/18 |

Further variants, results first:

| mean log10 Kd (nM) | seen in | control signals | CDR-H1 | CDR-H2 | CDR-H3 | group |
|---|---|---|---|---|---|---|
| not detected | 0/6 | 0/18 | GFTLNSYGIQ | VIYSDGRRTAYSDSVK | GRASGQFDS | Ctrl |
| 2.22 | 3/6 | 0/18 | GFNLNSYGIS | VIYSDGRRTFYDDSVK | GQKAGTFDS | GPLM_HC |
| 0.18 | 6/6 | 1/18 | GFDLDEYGIS | VIYADGVREAYIDSVK | GNWSGRIMY | En_Gibbs |
| -0.06 | 6/6 | 1/18 | GFDLDEYGIS | VIYADGVRTAYTDSVK | GNVAGTFDV | En_Gen |
| 0.58 | 6/6 | 0/18 | GFTLNSYGIS | VIYSDGRRTFYGDSVK | GKEAGTFDL | GPLM_Gibbs |
| not detected | 0/6 | 0/18 | GFMLNSYGIS | VIYSDGRRTFYGDSVK | GYCQGTFDS | Ctrl |
| not detected | 0/6 | 0/18 | GFELNSYGIS | VIYSDGRRTFYGDSVK | GEAAGTFDT | GP_Gen |
| not detected | 0/6 | 0/18 | GFSLNEYGIS | VIYSDGRRTFYGDAVK | GRTAGTFWS | GP_Gibbs |
| 1.90 | 6/6 | 0/18 | GFTLNEYGIS | VIYSDGRRTFYTDQVK | GRFAGTFDS | GPLM_HC |
| not detected | 0/6 | 0/18 | GFGLDEYGIS | VIYADGMRAQYATSVK | GYEAGTFST | En_Gibbs |
| -0.75 | 6/6 | 0/18 | GFDLNEYGIS | VIYADGVRTVYADSVK | GNVAGTFDI | En_Gen |
| 0.60 | 1/6 | 0/18 | GFELNSYGIS | VIYSDGRRTFYGDSVK | GRAAGTFIS | Ctrl |
| not detected | 0/6 | 0/18 | GFTLNDYGIS | VIYSDGRRTGYDDSPK | GRAAGTFFS | Ctrl |
| not detected | 0/6 | 0/18 | GDSLEEYGIS | VIYADGSRTSYQESVK | GLYIGMLDV | En_Gibbs |
| not detected | 0/6 | 0/18 | GHTLNSYGIS | VIYADGRRTFYGAEVK | SRAAGTNKS | Rand |
| 1.47 | 6/6 | 1/18 | GFELNSYGIS | VIYSDGRRTFYGDSVK | GHAAGTFDS | GP_Gibbs |
| -0.23 | 6/6 | 1/18 | GFTLNEYGIS | VIYSDGRRTFYTDSVK | GRTAGTFDA | GP_HC |
| -0.17 | 6/6 | 1/18 | GFSLDEVGIS | VIYADGRRAAYQDNVK | GENNVNFNE | En_Gibbs |
| not detected | 0/6 | 0/18 | GFSLNSYGIS | VIYSDGRRTFYGDSVK | GRASGRFDS | Ctrl |
| 1.29 | 6/6 | 0/18 | GFSLDEYGIS | VIYADGMRTAYADSVK | GENAGTFDV | En_Gen |
| not detected | 0/6 | 0/18 | GFTLQSYGIS | VIYSDGRRTFYGDSVK | GRNAATFDW | Ctrl |
| 1.10 | 6/6 | 0/18 | GFGLNSYGIS | VIYSDGRRTFYGDSVK | GKTAGTFDV | GP_Gibbs |
| 0.33 | 6/6 | 0/18 | GFDLNEYGIS | VIYADGMRTYYADSVK | GENAGTFDI | En_Gen |
| not detected | 0/6 | 0/18 | GFTLNSYSIS | VIYSDGRRTFYGDSVK | GRAVGTFDS | Ctrl |
| not detected | 0/6 | 0/18 | GFTLNSYGIS | VIYSDGRRTFYGDSVK | GQAAVTFDS | Ctrl |

Picked from the list: the 5 lowest averages where every replicate gave a value.

{"CDR-H1": "GFDLDEYGIS", "CDR-H2": "VIYADGRRTAYADSVK", "CDR-H3": "GNVAGTFDL", "group": "En_Gen", "mean log10 Kd (nM)": "-0.88", "seen in": "6/6", "control signals": "0/18"}
{"CDR-H1": "GFDLNEYGIS", "CDR-H2": "VIYADGRRTFYADSVK", "CDR-H3": "GNMAGTFNV", "group": "En_HC", "mean log10 Kd (nM)": "-0.79", "seen in": "6/6", "control signals": "0/18"}
{"CDR-H1": "GFDLNEYGIS", "CDR-H2": "VIYADGVRTVYADSVK", "CDR-H3": "GNVAGTFDI", "group": "En_Gen", "mean log10 Kd (nM)": "-0.75", "seen in": "6/6", "control signals": "0/18"}
{"CDR-H1": "GFDLNEYGIS", "CDR-H2": "VIYADGMRTAYIDSVK", "CDR-H3": "GNAAGTFDS", "group": "En_HC", "mean log10 Kd (nM)": "-0.58", "seen in": "6/6", "control signals": "0/18"}
{"CDR-H1": "GFDLDEYGIS", "CDR-H2": "VIYADGMRTAYADDVK", "CDR-H3": "GQNAGTFDT", "group": "En_Gen", "mean log10 Kd (nM)": "-0.55", "seen in": "6/6", "control signals": "0/18"}

Source: Li et al. 2023 (doi:10.1038/s41467-023-39022-2), MIT Lincoln Laboratory and A-Alpha Bio; data file from the FLAb repository.